Assay results published in patent US6451784B1 (priority 1996, dated 2002).
Like-named read-outs stand apart in the source and are kept apart here.

Legend:
[1] = rats, cited from earlier work
[2] = Carboplatin taken up by lung tissue and blood plasma after inhalation in rats (Example 40); details: for Ratio of carboplatin in lung to carboplatin in plasma: rat, inhalation, highest dose
[3] = mice, IV injection (Siddik et al); cited from earlier work
[4] = test system: Sprague Dawley rats; experiment: Vesicant activity test: single intradermal injection, dermal lesion size
[5] = test system: rats; experiment: Respiratory tract toxicity of inhaled carboplatin in rats (Example 39); details: for Results (RTT = respiratory tract toxicity evaluated microscopically): inhaled
[6] = Carboplatin formulations for inhalation, physical constants and saturation (Example 42)
[7] = test system: neoplastic lung disease; details: Ex. 17, Rottweiler, excised distal osteosarcoma, lung nodule; inhalation Dox 7 mg, × 2, Cisplatin 15 mg, × 1; trial 1 mo.
[8] = female rats, inhaled dose 1.8 mg/m^2 BSA, 20 min exposure, end of exposure
[9] = female rats, inhaled dose 3.9 mg/m^2 BSA, 45 min exposure, end of exposure
[10] = female rats, inhaled dose 7.7 mg/m^2 BSA, 90 min exposure, end of exposure
[11] = male rats, inhaled dose 1.2 mg/m^2 BSA, 20 min exposure, end of exposure
[12] = male rats, inhaled dose 2.1 mg/m^2 BSA, 45 min exposure, end of exposure
[13] = male rats, inhaled dose 3.6 mg/m^2 BSA, 90 min exposure, end of exposure
[14] = male rats, inhaled dose 10.0 mg/m^2 BSA, 180 min exposure, 1 day post-exposure
[15] = male rats, inhaled dose 10.0 mg/m^2 BSA, 180 min exposure, 3 days post-exposure
[16] = 0.24 mg/ml in 20:80% w/w propylene glycol:ethanol
[17] = 0.26 mg/ml in 20:80% w/w PEG 300:ethanol
[18] = 0.50 mg/ml in 20:80% w/w PEG 300:ethanol
[19] = 0.75 mg/ml in 20:80% v/v PEG 300:ethanol (190 proof)
[20] = 1.0 mg/ml in 20:80% w/w PEG 300:ethanol

carboplatin
Concentration of carboplatin in the lung ([1]; IV 26.2 mg/kg (5.24 mg per 200 gram rat), 30 minutes post dose): 21 ug carboplatin/gram of lung | Concentration of carboplatin in the lung as a percentage of the dose ([1]; IV 26.2 mg/kg, 30 minutes post dose): 0.4 % of the dose | Ratio of carboplatin in lung to carboplatin in plasma ([1]; IV injection (Tinker et al)): < 5 | Inhaled dose achieving 24 ug/gram of lung ([2]; female rats): less than 3.9 mg/m^2 | Lung/Plasma [2, 8]: 53.8 | Measured Carboplatin Concentration Lung [2, 8]: 21 µg/g | Measured Carboplatin Concentration Plasma [2, 8]: 0.39 µg/g | Lung/Plasma [2, 9]: 46.7 | Measured Carboplatin Concentration Lung [2, 9]: 35 µg/g | Measured Carboplatin Concentration Plasma [2, 9]: 0.75 µg/g | Lung/Plasma [2, 10]: 57.1 | Measured Carboplatin Concentration Lung [2, 10]: 72 µg/g | Measured Carboplatin Concentration Plasma [2, 10]: 1.26 µg/g | Inhaled dose achieving 24 ug/gram of lung ([2]; male rats): 1.2 mg/m^2 | Lung/Plasma [2, 11]: 53.1 | Measured Carboplatin Concentration Lung [2, 11]: 26 µg/g | Measured Carboplatin Concentration Plasma [2, 11]: 0.49 µg/g | Lung/Plasma [2, 12]: 53.8 | Measured Carboplatin Concentration Lung [2, 12]: 50 µg/g | Measured Carboplatin Concentration Plasma [2, 12]: 0.93 µg/g | Lung/Plasma [2, 13]: 60.1 | Measured Carboplatin Concentration Lung [2, 13]: 86 µg/g | Measured Carboplatin Concentration Plasma [2, 13]: 1.43 µg/g | Lung/Plasma [2, 14]: 200.0 | Measured Carboplatin Concentration Lung [2, 14]: 28 µg/g | Measured Carboplatin Concentration Plasma [2, 14]: 0.14 µg/g | Lung/Plasma [2, 15]: 277.8 | Measured Carboplatin Concentration Lung [2, 15]: 25 µg/g | Measured Carboplatin Concentration Plasma [2, 15]: 0.09 µg/g | Ratio of carboplatin in lung to carboplatin in plasma ([2]; 1 day post exposure): 200.0 | Ratio of carboplatin in lung to carboplatin in plasma ([2]; 3 days post exposure): 277.8 | Ratio of carboplatin in lung to carboplatin in plasma [3]: ≤ 12 | Individual Lesion Size Measurements, Day of Test (post injection) 34 ([4]; rat, 0.2 ml intradermal at clinical concentration, individual animals, day 34): 19.2 mm^2 | Individual Lesion Size Measurements, Day of Test (post injection) 36 ([4]; rat, 0.2 ml intradermal at clinical concentration, individual animals, day 36): 0.6 mm^2 | Results (RTT = respiratory tract toxicity evaluated microscopically) ([5]; female rats, dose deposited in lung 6.35 mg/m^2 BSA): Moderate RTT | Results (RTT = respiratory tract toxicity evaluated microscopically) ([5]; female rats, dose deposited in lung 13.86 mg/m^2 BSA): Severe /rtt | Results (RTT = respiratory tract toxicity evaluated microscopically) ([5]; female rats, dose deposited in lung 17.57 mg/m^2 BSA): Lethal | Results (RTT = respiratory tract toxicity evaluated microscopically) ([5]; male rats, dose deposited in lung 1.13 mg/m^2 BSA): Mininial/mild RTT | Results (RTT = respiratory tract toxicity evaluated microscopically) ([5]; male rats, dose deposited in lung 3.32 mg/m^2 BSA): Moderate RTT | Results (RTT = respiratory tract toxicity evaluated microscopically) ([5]; male rats, dose deposited in lung 7.18 mg/m^2 BSA): Severe RTT | Results (RTT = respiratory tract toxicity evaluated microscopically) ([5]; male rats, dose deposited in lung 12.88 mg/m^2 BSA): Lethal | Toxicity at the lowest doses ([5]; rat, both sexes, inhalation): well tolerated and caused only minimal to mild microscopic changes in the respiratory tract | Toxicity at higher doses ([5]; rat, inhalation): moderate or severe | Toxicity at the highest doses in each sex ([5]; rat, inhalation): lethal | Toxicity of inhaled doses giving 24 ug/gram of lung ([5]; rat, inhalation 1.2 mg/m^2 (male), less than 3.9 mg/m^2 (female)): not lethal in the rat and cause only mild to moderate microscopic toxicity to the respiratory tract | Saturation of the solution (solubility) ([6]; 0.24 mg/ml in 20:80% w/w glycerol:ethanol): appeared to be saturated | Resistivity of the solution [6, 16]: 5,680 ohm-m | Saturation of the solution (solubility) [6, 16]: appeared to be saturated | Approximate dissolution time [6, 17]: about 24 hours | Resistivity of the solution [6, 17]: 2,130 ohm-m | Approximate dissolution time [6, 18]: about 24 hours | Resistivity of the solution [6, 18]: 2,020 ohm-m | Saturation of the solution (solubility) ([6]; 0.50 mg/ml in 20:80% w/w glycerol:ethanol): saturated | Resistivity of the solution ([6]; 0.50 mg/ml in 20:80% w/w propylene glycol:ethanol): 5,350 ohm-m | Density [6, 19]: 0.861 g/mL | Relative permitivity [6, 19]: 22 | Resistivity [6, 19]: 2,430 ohm-m | Surface tension [6, 19]: 24.5 dynes/cm | Resistivity of the solution [6, 20]: 2,000 ohm-m | Saturation of the solution (solubility) [6, 20]: saturated

cisplatin
Vesicant classification as determined by the methods used herein ([4]; lesion of at least about 20 mm^2 in at least one half of animals at day 15, severe: at least one-half still >about 10 mm^2 at day 31): non-vesicants | Individual Lesion Size Measurements, Day of Test (post injection) 29 ([4]; rat, 0.2 ml intradermal at clinical concentration, individual animals, day 29): 1.4 mm^2 | Severe erythema ([4]; rat, intradermal injection): all drugs except for cisplatin (platinol) and cytarabine | Results [7]: PD lung
